# Source: PubChem BioAssay (NCI)
#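 Method: 48-hour compound exposure of cells in 96-well plates, five concentrations, linear interpolation of endpoints. Here, GI50 denotes the concentration required for 50% inhibition of growth. Definition used: TGI = concentration required for complete inhibition of growth.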
# Key:
# Test in all cases: DTP human tumour cell line panel, 48 h
# [1] = system: NCI-H522 lung
# [2] = system: A498 renal
# [3] = system: SR leukemia
# [4] = system: XF 498 CNS
# [5] = system: SK-MEL-5 melanoma
# [6] = system: A549 NSCLC
# [7] = system: M14 melanoma
# [8] = system: NCI-H460 lung
# [9] = system: HCT-116 colon
# [10] = system: COLO 205 colon
# [11] = system: OVCAR-3 ovarian
# [12] = system: TK-10 renal
# [13] = system: UO-31 renal
# [14] = system: OVCAR-5 ovarian
# [15] = system: CAKI-1 renal
# [16] = system: SF-295 CNS
# [17] = system: M19-MEL melanoma
# [18] = system: HCT-15 colon
# [19] = system: HT29 colon
# [20] = system: HCC-2998 colon
# [21] = system: OVCAR-4 ovarian
# [22] = system: SF-539 CNS
# [23] = system: SN12C renal
# [24] = system: SW-620 colon
# [25] = system: DMS 114 small cell lung
# [26] = system: IGROV1 ovarian
# [27] = system: MALME-3M melanoma
# [28] = system: SNB-78 CNS
# [29] = system: UACC-62 melanoma
# [30] = system: SNB-75 CNS
# [31] = system: OVCAR-8 ovarian
# [32] = system: HOP-62 NSCLC
# [33] = system: EKVX NSCLC
# [34] = system: UACC-257 melanoma
# [35] = system: DLD-1 colon
# [36] = system: SF-268 CNS
# [37] = system: RXF-631 renal
# [38] = system: DMS 273 small cell lung
# [39] = system: KM20L2 colon
# [40] = system: 786-0 renal
# [41] = system: MOLT-4 leukemia
# [42] = system: RXF 393 renal
# [43] = system: SK-MEL-2 melanoma
# [44] = system: NCI-H23 lung
# [45] = system: HOP-18 NSCLC
# [46] = system: K-562 leukemia
# [47] = system: RPMI-8226 leukemia
# [48] = system: HOP-92 NSCLC
# [49] = system: HL-60(TB) leukemia
# [50] = system: LOX IMVI melanoma
# [51] = system: SK-MEL-28 melanoma
# [52] = system: SK-OV-3 ovarian
# [53] = system: LXFL 529 NSCLC
# [54] = system: NCI-H322M lung
# [55] = system: KM12 colon
# [56] = system: ACHN renal
# [57] = system: NCI-H226 lung
# [58] = system: CCRF-CEM leukemia
# [59] = system: U251 CNS
# [60] = system: SNB-19 CNS
smiles,measurement,setting,value
O=[N+]([O-])N1C2OC3OC2N([N+](=O)[O-])C2OC3OC21,GI50,[1],> 100 µM
same,TGI,[1],> 100 µM
same,GI50,[2],> 100 µM
same,TGI,[2],> 100 µM
same,GI50,[3],64.9 µM
same,TGI,[3],> 100 µM
same,GI50,[4],> 100 µM
same,TGI,[4],> 100 µM
same,GI50,[5],> 100 µM
same,TGI,[5],> 100 µM
same,GI50,[6],> 100 µM
same,TGI,[6],> 100 µM
same,GI50,[7],> 100 µM
same,TGI,[7],> 100 µM
same,GI50,[8],63.7 µM
same,TGI,[8],> 100 µM
same,GI50,[9],45.5 µM
same,TGI,[9],62.6 µM
same,GI50,[10],43.9 µM
same,TGI,[10],61.4 µM
same,GI50,[11],> 100 µM
same,TGI,[11],> 100 µM
same,GI50,[12],> 100 µM
same,TGI,[12],> 100 µM
same,GI50,[13],> 100 µM
same,TGI,[13],> 100 µM
same,GI50,[14],> 100 µM
same,TGI,[14],> 100 µM
same,GI50,[15],> 100 µM
same,TGI,[15],> 100 µM
same,GI50,[16],> 100 µM
same,TGI,[16],> 100 µM
same,GI50,[17],> 100 µM
same,TGI,[17],> 100 µM
same,GI50,[18],56.2 µM
same,TGI,[18],> 100 µM
same,GI50,[19],> 100 µM
same,TGI,[19],> 100 µM
same,GI50,[20],> 100 µM
same,TGI,[20],> 100 µM
same,GI50,[21],> 100 µM
same,TGI,[21],> 100 µM
same,GI50,[22],> 100 µM
same,TGI,[22],> 100 µM
same,GI50,[23],> 100 µM
same,TGI,[23],> 100 µM
same,GI50,[24],41.6 µM
same,TGI,[24],59.5 µM
same,GI50,[25],49 µM
same,TGI,[25],76.3 µM
same,GI50,[26],> 100 µM
same,TGI,[26],> 100 µM
same,GI50,[27],> 100 µM
same,TGI,[27],> 100 µM
same,GI50,[28],> 100 µM
same,TGI,[28],> 100 µM
same,GI50,[29],> 100 µM
same,TGI,[29],> 100 µM
same,GI50,[30],> 100 µM
same,TGI,[30],> 100 µM
same,GI50,[31],> 100 µM
same,TGI,[31],> 100 µM
same,GI50,[32],> 100 µM
same,TGI,[32],> 100 µM
same,GI50,[33],> 100 µM
same,TGI,[33],> 100 µM
same,GI50,[34],> 100 µM
same,TGI,[34],> 100 µM
same,GI50,[35],42.8 µM
same,TGI,[35],63.7 µM
same,GI50,[36],> 100 µM
same,TGI,[36],> 100 µM
same,GI50,[37],> 100 µM
same,TGI,[37],> 100 µM
same,GI50,[38],97.2 µM
same,TGI,[38],> 100 µM
same,GI50,[39],> 100 µM
same,TGI,[39],> 100 µM
same,GI50,[40],> 100 µM
same,TGI,[40],> 100 µM
same,GI50,[41],> 100 µM
same,TGI,[41],> 100 µM
same,GI50,[42],31.6 µM
same,TGI,[42],31.6 µM
same,GI50,[43],> 100 µM
same,TGI,[43],> 100 µM
same,GI50,[44],> 100 µM
same,TGI,[44],> 100 µM
same,GI50,[45],> 100 µM
same,TGI,[45],> 100 µM
same,GI50,[46],> 100 µM
same,TGI,[46],> 100 µM
same,GI50,[47],46.4 µM
same,TGI,[47],68.2 µM
same,GI50,[48],> 100 µM
same,TGI,[48],> 100 µM
same,GI50,[49],84.6 µM
same,TGI,[49],> 100 µM
same,GI50,[50],50 µM
same,TGI,[50],84.3 µM
same,GI50,[51],> 100 µM
same,TGI,[51],> 100 µM
same,GI50,[52],> 100 µM
same,TGI,[52],> 100 µM
same,GI50,[53],> 100 µM
same,TGI,[53],> 100 µM
same,GI50,[54],> 100 µM
same,TGI,[54],> 100 µM
same,GI50,[55],> 100 µM
same,TGI,[55],> 100 µM
same,GI50,[56],> 100 µM
same,TGI,[56],> 100 µM
same,GI50,[57],> 100 µM
same,TGI,[57],> 100 µM
same,GI50,[58],62.8 µM
same,TGI,[58],> 100 µM
same,GI50,[59],> 100 µM
same,TGI,[59],> 100 µM
same,GI50,[60],> 100 µM
same,TGI,[60],> 100 µM
